This is an account of results in paper PMC6089664 (Clinical pharmacology and therapeutics, 2017).

Series [1] can be described thus: Population pharmacokinetic. The format is in vivo, human. The conditions noted are these: for AUC24,SS/Dose: AUC24,SS/total daily dose; for AUC24,SS/Dose / CL/F / V/F: geometric mean (%CV); for CL/F / V/F: final PK visit.
The test system of series [2] is IL-6-stimulated STAT-3 phosphorylation (pSTAT-3). The following applies: baricitinib trough concentrations, CD8+ T cells.
Where [3] appears, read: eGFR <120 ml/min/1.73 m^2, <20kg (n=2).
The mark [4] stands for this setting: eGFR <120 ml/min/1.73 m^2, >40kg (n=3).
Where [5] appears, read: eGFR ≥120 ml/min/1.73 m^2, 20–40kg (n=5).
Setting [6] is: eGFR ≥120 ml/min/1.73 m^2, <20kg (n=2).
The mark [7] stands for this setting: eGFR ≥120 ml/min/1.73 m^2, >40kg (n=5).

Several values for one entry are separate records, joined by “and”; a condition that tells them apart may be missing. Identical values can stand only once.

For `CCS(=O)(=O)N1CC(CC#N)(n2cc(-c3ncnc4[nH]ccc34)cn2)C1` [baricitinib, Baricitinib], the “AUC24,SS relative to RA population at 4 mg once daily” value in series [1] (2388 nM*h vs 1304 nM*h, higher) was 1.83 fold. The “AUC24,SS/Dose higher in patients with eGFR below 120 than in weight-matched patients with eGFR ≥120 mL/min/1.73m^2” value in series [1] (<20 kg and >40 kg weight categories) is on record as 52–59%. In addition, the “AUC24,SS/Dose” value is recorded as 513 (4.7%) nM*h/mg in series [1] (setting [3]); 293 (82.7%) nM*h/mg in series [1] (setting [4]); 292 (36.6%) nM*h/mg in series [1] (setting [5]); 322 (12.6%) nM*h/mg in series [1] (setting [6]); 193 (22.2%) nM*h/mg in series [1] (setting [7]). For the same compound, the CL/F in series [1] (setting [3]) is 5.3 (4.7%) L/hr; in series [1] (setting [4]), 9.2 (82.7%) L/hr; in series [1] (setting [5]), 9.2 (CV 36.6%) L/hr and 9.2 (36.6%) L/hr; in series [1] (setting [6]) it was 8.4 (CV 12.6%) L/hr and 8.4 (12.6%) L/hr; in series [1] (setting [7]) it was 13.9 (CV 22.2%) L/hr and 13.9 (22.2%) L/hr. In addition, the V/F was 103.0 (7.9%) L in series [1] (setting [4]), 66.2 (25.5%) L in series [1] (setting [5]), 53.1 (17.3%) L in series [1] (setting [6]) and 141.0 (28.0%) L in series [1] (setting [7]). Moreover, in series [2], the “mean pSTAT-3 MFI ratio compared to healthy controls” value was “no notable difference”.
